Values quoted from earlier work, collected in patent US9364565B2, “Medical device with coating for capturing genetically-altered cells and methods of using same” (OrbusNeich Medical, Inc., priority 2000, dated 2016).

Amino acid sequences for entries named in this document (tags omitted). Residues count along the entry.
UniProt P35968, 20-1356: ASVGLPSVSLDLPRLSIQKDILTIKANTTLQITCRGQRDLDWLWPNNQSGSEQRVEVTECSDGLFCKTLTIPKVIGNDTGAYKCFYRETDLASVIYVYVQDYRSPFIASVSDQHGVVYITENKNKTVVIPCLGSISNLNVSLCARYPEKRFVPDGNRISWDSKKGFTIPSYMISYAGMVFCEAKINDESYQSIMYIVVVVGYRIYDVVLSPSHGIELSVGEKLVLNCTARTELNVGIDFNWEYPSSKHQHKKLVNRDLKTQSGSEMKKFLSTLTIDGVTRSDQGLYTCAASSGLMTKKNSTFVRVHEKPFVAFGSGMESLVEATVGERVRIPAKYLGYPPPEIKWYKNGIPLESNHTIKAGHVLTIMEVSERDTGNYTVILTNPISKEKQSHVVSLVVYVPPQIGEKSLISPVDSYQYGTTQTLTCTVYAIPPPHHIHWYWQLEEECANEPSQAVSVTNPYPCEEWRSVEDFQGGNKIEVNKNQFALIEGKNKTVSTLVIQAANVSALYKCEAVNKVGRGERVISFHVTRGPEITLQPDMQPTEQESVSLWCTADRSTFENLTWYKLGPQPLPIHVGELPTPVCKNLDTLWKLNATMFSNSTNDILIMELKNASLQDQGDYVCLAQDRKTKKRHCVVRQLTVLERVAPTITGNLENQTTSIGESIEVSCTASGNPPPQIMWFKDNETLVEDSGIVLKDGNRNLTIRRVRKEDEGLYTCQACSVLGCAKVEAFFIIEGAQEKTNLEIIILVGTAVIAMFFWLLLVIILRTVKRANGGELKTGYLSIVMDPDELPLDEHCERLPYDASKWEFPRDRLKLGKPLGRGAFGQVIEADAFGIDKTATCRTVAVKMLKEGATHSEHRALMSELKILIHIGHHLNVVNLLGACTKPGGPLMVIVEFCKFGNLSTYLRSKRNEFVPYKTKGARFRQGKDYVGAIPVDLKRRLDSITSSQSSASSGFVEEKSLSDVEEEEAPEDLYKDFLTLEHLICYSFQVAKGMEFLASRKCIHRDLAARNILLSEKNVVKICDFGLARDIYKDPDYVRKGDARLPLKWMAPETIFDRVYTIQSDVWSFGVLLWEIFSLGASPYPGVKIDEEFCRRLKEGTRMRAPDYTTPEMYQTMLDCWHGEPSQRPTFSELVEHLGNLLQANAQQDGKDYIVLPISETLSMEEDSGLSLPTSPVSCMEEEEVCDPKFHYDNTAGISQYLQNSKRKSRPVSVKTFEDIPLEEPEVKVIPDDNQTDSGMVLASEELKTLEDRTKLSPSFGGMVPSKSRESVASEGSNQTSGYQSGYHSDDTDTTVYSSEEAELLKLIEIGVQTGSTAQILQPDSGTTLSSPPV

Molecular target: VEGFR-2 (Homo sapiens, UniProt P35968)

Clc1ccc(Nc2nnc(Cc3ccncc3)c3ccccc23)cc1 [PTK787/ZK222584]
binding to VEGFR-2: bind to VEGFR-2
